The values below come from paper PMC3187749, “Discovery of Diverse Small Molecule Chemotypes with Cell-Based PKD1 Inhibitory Activity” (PLoS ONE, 2011).

One assay concerns the target T1, recombinant human PKD1 (Homo sapiens, UniProt Q15139).
T1 construct: His; purchased Millipore (Billerica, MA)
T1 sequence (Q15139 1-912): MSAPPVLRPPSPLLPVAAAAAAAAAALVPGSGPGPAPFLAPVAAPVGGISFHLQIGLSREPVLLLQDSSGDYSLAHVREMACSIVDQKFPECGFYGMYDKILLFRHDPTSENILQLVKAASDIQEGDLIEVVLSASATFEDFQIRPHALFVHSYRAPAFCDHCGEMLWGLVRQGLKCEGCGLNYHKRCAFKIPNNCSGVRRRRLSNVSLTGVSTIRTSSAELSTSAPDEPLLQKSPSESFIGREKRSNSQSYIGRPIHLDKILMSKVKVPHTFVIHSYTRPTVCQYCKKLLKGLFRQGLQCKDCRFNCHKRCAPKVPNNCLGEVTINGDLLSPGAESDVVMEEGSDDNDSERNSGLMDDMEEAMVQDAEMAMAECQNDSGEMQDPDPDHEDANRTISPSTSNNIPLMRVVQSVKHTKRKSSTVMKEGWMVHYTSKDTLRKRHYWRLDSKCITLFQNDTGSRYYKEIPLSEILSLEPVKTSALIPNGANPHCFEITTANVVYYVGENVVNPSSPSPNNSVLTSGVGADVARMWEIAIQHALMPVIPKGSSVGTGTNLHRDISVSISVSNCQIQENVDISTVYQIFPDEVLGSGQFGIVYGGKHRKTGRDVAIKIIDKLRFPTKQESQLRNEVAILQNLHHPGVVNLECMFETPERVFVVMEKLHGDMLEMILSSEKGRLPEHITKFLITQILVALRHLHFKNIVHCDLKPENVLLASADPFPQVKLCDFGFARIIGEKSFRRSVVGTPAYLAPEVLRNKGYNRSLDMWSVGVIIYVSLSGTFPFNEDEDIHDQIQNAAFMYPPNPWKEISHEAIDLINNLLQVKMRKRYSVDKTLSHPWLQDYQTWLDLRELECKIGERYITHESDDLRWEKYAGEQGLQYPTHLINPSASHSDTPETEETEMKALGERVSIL
Briefly: In vitro radiometric PKD1 kinase assay. It is filed as biochemical. To be noted: mean ± range or SD of 2–4 independent experiments. Here is the method: For compound IC50 confirmation studies, 1 ng/µL recombinant human PKD1 and 20 µg Syntide-2 substrate peptide in 30 µL kinase buffer (50 mM Tris-HCl, pH 7.5, 4 mM MgCl2 and 10 mM β-mercaptoethanol) were incubated with a concentration range (0–100 µM) of test compound. Kinase reactions were initiated with the addition of ATP (50 µM ATP, 1.0 µCi γ-^33P-ATP; Perkin Elmer, Boston, MA) and incubated for 20 min at 30°C. Twenty-five µL of the reaction was spotted onto Whatman P81 filter paper (Whatman Inc., Clifton, NJ). Filter papers were then washed three times in 0.5% phosphoric acid, air-dried, and counted using an LS6500 multi-purpose scintillation counter (Beckman Coulter, Fullerton, CA). IC50 determinations were performed using GraphPad Prism software 5.0. Radiometric PKD2 and PKD3 in vitro kinase assays were performed as previously described.

Assay [1] deals with T2, endogenous PKD1 (Ser916 phosphorylation) in LNCaP prostate cancer cells (Homo sapiens, UniProt Q15139).
T2 construct: phosphorylation of endogenously expressed PKD1 Ser^916; endogenous in cells; host or cells: LNCaP prostate cancer cells
T2 sequence (Q15139 1-912): T1 sequence (Q15139 1-912)
Briefly: Western blot of PMA-induced phospho-Ser916-PKD1 in LNCaP cells. As to conditions: PMA stimulation, n = 3, read-out: Cellular EC50 (phospho-Ser916-PKD1). It is filed as cell-based. As to the method: Briefly, prostate cancer cells (LNCaP) were exposed to test compounds. Cells were lysed in buffer (200 mM Tris-HCl, pH 7.4, 100 µM 4-(2-aminoethyl) benzenesulfonyl fluoride, 1 mM EGTA, and 1% Triton X-100) and cell lysates were subjected to SDS-PAGE then electrotransferred to nitrocellulose membranes. Membranes were blocked with 5% nonfat milk in Tris-buffered saline. Membranes were probed with a primary antibody then followed by a secondary anti-mouse or anti-rabbit secondary antibody conjugated to horseradish peroxidase (1∶1000, Bio-Rad). Bands were visualized by the enhanced chemiluminescence Western blotting detection system (Amersham Biosciences). The primary antibodies included p-S916-PKD1 antibody (Millipore) and GAPDH (Enzo Life Sciences, Plymouth Meeting, PA).
[…] Whole cell lysates were immunoblotted for phosphorylated Ser^916-PKD1 with GAPDH serving as a loading control.
A general note: Immunoblotting shows a protein as a band on a membrane.

By IC50 is commonly meant the concentration that gives 50% inhibition. Take `Nc1nc2ccc([N+](=O)[O-])c(N)c2s1` [CID 5086667]: on recombinant human PKD1, the IC50 came to 1500 ± 300 nM. Usually EC50 stands for the midpoint of the concentration-response curve. Regarding “(6Z)-6-[4-(3-aminopropylamino)-6-methyl-1H-pyrimidin-2-ylidene]cyclohexa-2,4-dien-1-one [CID 5389142]”, on recombinant human PKD1, the IC50 stood at 1500 ± 100 nM. Besides, the 50% effective concentration (EC50) in assay [1] turned out to be 22000 ± 3000 nM.
